Assay [1] addresses human IgE (immobilized on the SPR chip) (human) (UniProt P01854). The assay is described as follows: SPR, IgG injected over amine-coupled IgE (t=0). A general note: In SPR one partner is held on a chip, and binding of the other changes the refractive index at the surface.
Assay [2] shares this target. The assay is described as follows: SPR, Biacore T200, single-cycle kinetic titration, IgE immobilized (390 RU), 1:1 model.
Assay [3] shares this target. The assay is described as follows: SPR, IgG injected over amine-coupled IgE (t=6 months).

Sequences of proteins named here, by UniProt entry; tags and fusion partners are left off. A line that says so, or that is headed by a name, gives the form on record, which may keep a tag or linker.
UniProt P01854, other isoform, or with tags, fused parts or gaps: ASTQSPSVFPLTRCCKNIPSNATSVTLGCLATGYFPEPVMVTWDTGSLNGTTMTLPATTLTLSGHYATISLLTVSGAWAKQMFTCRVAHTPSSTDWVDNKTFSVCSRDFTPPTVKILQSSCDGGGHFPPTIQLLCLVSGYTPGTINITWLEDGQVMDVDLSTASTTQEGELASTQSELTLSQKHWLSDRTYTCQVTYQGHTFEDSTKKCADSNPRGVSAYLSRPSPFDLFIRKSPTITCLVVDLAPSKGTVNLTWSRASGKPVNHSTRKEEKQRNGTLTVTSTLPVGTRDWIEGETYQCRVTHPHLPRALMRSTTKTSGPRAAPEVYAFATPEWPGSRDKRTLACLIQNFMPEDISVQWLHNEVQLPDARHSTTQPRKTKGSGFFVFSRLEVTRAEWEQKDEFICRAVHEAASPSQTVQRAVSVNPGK

For the substance “Omalizumab drug substance, Sample 1 of Example 2 (untreated) (antibody)”, in assay [1], the Kd (as a rule, the free concentration of one partner at which half of the binding sites on the other are occupied at equilibrium, for simple one-to-one binding) turned out to be 0.202 nM; the koff (as a rule, the first-order rate constant of dissociation) worked out at 0.000159 s⁻¹; the kon (as a rule, the rate constant with which the complex forms) came to 790000 M⁻¹ s⁻¹.

As for “Omalizumab freeze-dried drug product (Halix batch B3010640), Sample 1 of Example 3 (untreated) (antibody)”, in assay [2], the Kd amounted to 1.9 nM, the koff came out at 0.00154 s⁻¹ and the kon was 800000 M⁻¹ s⁻¹.

For the substance “Omalizumab released in PBS from chitosan particles, Sample 2 of Example 2 (antibody)”, in assay [3], the Kd turned out to be 0.189 nM, the koff stood at 0.000192 s⁻¹ and the kon came to 1.02e+06 M⁻¹ s⁻¹.

Regarding “Omalizumab released in PBS from chitosan particles, Sample 2 of Example 3 (antibody)”, in assay [2], the Kd came out at 1.9 nM, the koff amounted to 0.00134 s⁻¹ and the kon worked out at 710000 M⁻¹ s⁻¹.

Regarding “XOLAIR (originator omalizumab), reference sample (antibody)”, in assay [1], the Kd was determined as 0.184 nM, the koff is 0.000149 s⁻¹ and the kon was 810000 M⁻¹ s⁻¹. In assay [3], the Kd is 0.153 nM, the koff came to 0.000117 s⁻¹ and the kon was 1.12e+06 M⁻¹ s⁻¹.

Values taken from patent US20210259973A1.
